Values quoted from earlier work as cited in publication PMC10223992, “In Silico-Motivated Discovery of Novel Potent Glycogen Synthase-3 Inhibitors: 1-(Alkyl/arylamino)-3H-naphtho[1,2,3-de]quinoline-2,7-dione Identified as a Scaffold for Kinase Inhibitor Development” (Pharmaceuticals, 2023).

System: GSK-3β
Design: method as in ChEMBL database [53]
Settings: Table S1, ChEMBL data; ref ChEMBL database [53]; read-out: IC50 (GSK-3β, known actives); cited from earlier work

NC(=O)c1cc(-c2ccncc2F)[nH]c1-c1ccccc1 [CHEMBL1271441]
IC50: 100 nM
